{"source": "patent US10913710B2", "about": "“Benzene disulfonamide for the treatment of cancer” (priority 2017, dated 2021)", "key": {"PDEδ": {"biological_target": "PDEδ (Homo sapiens (Human), UniProt O43924)", "details": "cited from earlier work"}, "PDE6δ": {"biological_target": "PDE6δ (Homo sapiens, UniProt O43924)", "test": "Arl2-mediated displacement of fluorescently labeled inhibitors from PDE6δ (fluorescence polarization)", "assay_type": "binding", "description": "The purification was followed by size exclusion gel filtration on a Superdex 75 S26/60 column using buffer A (25 mM Tris-HCl, pH 7.5, 150 mM NaCl and 3 mM DTE)."}}}
{"smiles": "c1ccc(Cn2c(-c3ccc(OC[C@H](C4CCNCC4)n4c(-c5ccccc5)nc5ccccc54)cc3)nc3ccccc32)cc1", "note": "[Deltarasin, reference compound]", "values": [{"measurement": "binding affinity to PDE6δ in vitro", "setting": "PDEδ", "value": "low nanomolar affinity"}, {"measurement": "release from PDE6δ induced by Arl2", "setting": "PDE6δ", "value": "induces release"}]}
